Experimental data: patent EP2330125A2 (priority 2005, dated 2007)

Assays:
calcitonin receptor = settings: read-out: IC50 in a CT receptor binding assay
GLP-1 receptor = target: T1, GLP-1 receptor (Rattus norvegicus, UniProt P32301); settings: read-out: Receptor Binding Assay GLP-1
T1 construct: the receptor source is RINm5F cell membranes; endogenous in cells; host or cells: RINm5F cell membranes
T1 sequence (P32301 22-463): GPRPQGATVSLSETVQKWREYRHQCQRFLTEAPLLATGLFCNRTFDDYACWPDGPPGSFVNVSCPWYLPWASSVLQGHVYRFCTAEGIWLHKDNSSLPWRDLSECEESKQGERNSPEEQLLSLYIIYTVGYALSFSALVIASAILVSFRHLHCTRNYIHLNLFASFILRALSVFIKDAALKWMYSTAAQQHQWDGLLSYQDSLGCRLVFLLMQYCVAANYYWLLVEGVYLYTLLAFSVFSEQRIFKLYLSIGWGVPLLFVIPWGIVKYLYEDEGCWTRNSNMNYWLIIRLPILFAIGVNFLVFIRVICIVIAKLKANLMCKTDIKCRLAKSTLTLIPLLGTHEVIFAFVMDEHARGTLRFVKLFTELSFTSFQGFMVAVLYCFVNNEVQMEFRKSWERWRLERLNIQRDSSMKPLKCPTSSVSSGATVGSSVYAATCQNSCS

Q: With “DF(P-CH2SO3)MGWNMFGKR KCNTATCATQRLANELVRLQTYPRTNVGSNTY [SEQ ID NO: 398]” as the substance, how does the IC50 (calcitonin receptor) read?
A: 44 pM

Q: Which IC50 (GLP-1 receptor) does the source give for “^29βAla-βAla-Exendin(1-28),hAmylin(1-7)-^11,18Arg-sCt(8-27)-hAmylin(33-37) [Compound 14]” here?
A: 300 pM

Q: Which IC50 (GLP-1 receptor) does the source give for “^29GlyGlyGly-Exendin(1-28),hAmylin(1-7)-^11,18Arg-sCt(8-27)-hAmylin(33-37) [Compound 15]” here?
A: 400 pM
